Literature values, collected in patent US20090186081A1, “Disintegrating Loadable Tablets” (LifeCycle Pharma A/S, priority 2006, published 2009).

Settings: Table 1, Poorly-Soluble Drug Candidates

Compound: CCC(=O)N(c1ccccc1)C1CCN(CCc2ccccc2)CC1
- Solubility In Water: Sparingly

This is a selection: effects in other tests are not listed, and their absence says nothing.
